Experiments:
FLAG-MOR [1] = molecular target: T1, FLAG-MOR (Mus musculus, UniProt P42866); experiment: Whole cell [3H] DAMGO binding in live FLAG-MOR HEK 293 cells; conditions: 12 nM; for specifically bound [3H] DAMGO: 10 min
FLAG-MOR [2] = molecular target: T1, FLAG-MOR; assay type: binding

Sequences of proteins named here, by UniProt entry; tags and fusion partners are left off.
UniProt P42866, whole entry: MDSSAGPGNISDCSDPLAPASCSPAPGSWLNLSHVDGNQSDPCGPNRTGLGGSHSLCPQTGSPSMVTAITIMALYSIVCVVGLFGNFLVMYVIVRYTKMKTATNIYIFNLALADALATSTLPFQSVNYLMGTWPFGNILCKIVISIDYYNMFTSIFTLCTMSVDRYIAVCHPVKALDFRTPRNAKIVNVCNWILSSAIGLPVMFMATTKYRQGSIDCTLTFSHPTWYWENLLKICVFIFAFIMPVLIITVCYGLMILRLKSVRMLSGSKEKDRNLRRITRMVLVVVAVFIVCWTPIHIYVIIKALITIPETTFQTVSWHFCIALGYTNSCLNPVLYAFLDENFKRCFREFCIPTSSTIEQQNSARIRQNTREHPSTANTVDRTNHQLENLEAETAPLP

Substance | specifically bound [3H] DAMGO (FLAG-MOR [1]; cells pretreated with ME 30 µM 2 hrs + Con A) | specifically bound [3H] DAMGO (FLAG-MOR [1]; naïve cells) | increase in [3H] DAMGO binding after modulation by ME (FLAG-MOR [1]; ME 30 µM 2 hrs vs naïve) [%] | fraction derm A594 remaining after 3 min (FLAG-MOR [2])
[^3H] DAMGO | 397.7± 32.6 fmol [^3H] DAMGO bound/mg protein | 91.3±2.3 fmol [^3H] DAMGO bound/mg protein | 335 | –
endomorphin 2 [enodmorphin 2] | – | – | – | 0.45±0.02

Source: paper PMC3711766 (The Journal of neuroscience : the official journal of the …, 2013)
